The values below are quoted from earlier work in patent US20260126455A1, “Methods and Dosing Regimens for Preventing or Delaying Onset of Alzheimer's Disease and Other Forms of Dementia and Mild Cognitive Impairment” (priority 2020, published 2026).

The test system of the series is amyloid. To be noted: cited from earlier work; for Clinical trial efficacy end points: Alzheimer's disease subjects, Solanezumab: Phase 3, mild Alzheimer's disease.

Consider “Aducanumab: another anti-amyloid antibody, designed by Biogen”, for which the “Clinical trial efficacy end points” value is listed as “efficacy endpoints were also not met”. Moreover, the “Removal of beta-amyloid plaques” value (people with Alzheimer's) was “appeared to be able to remove those plaques”.
Take Bapineuzumab: anti-amyloid antibody: the “Clinical trial efficacy end points” value is given as “failed to achieve the desired end points”.
